Data as given in ChEMBL document CHEMBL3046823, “Insect muscarinic acetylcholine receptor: pharmacological and toxicological profiles of antagonists and agonists” (J Agric Food Chem, 2007).

Legend:
[1] = target: T1, Muscarinic acetylcholine receptor DM1 (Drosophila melanogaster, UniProt P16395); assay: Displacement of [3H]QNB from Drosophila melanogaster mAChR by scintillation counting
[2] = target: T1, Muscarinic acetylcholine receptor DM1; assay: Displacement of [3H]AF-DX 384 from Drosophila melanogaster mAChR by scintillation counting

## Br.CN1[C@@H]2C[C@@H](OC(=O)[C@H](CO)c3ccccc3)C[C@H]1[C@@H]1O[C@@H]12.O.O.O [SCOPOLAMINE HYDROBROMIDE]
[1]
  Ki: 1.1 nM
[2]
  Ki: 0.7 nM
